Test results reported in paper PMC8881501, “Identification of SARS-CoV-2 inhibitors targeting Mpro and PLpro using in-cell-protease assay” (Communications Biology, 2022).

Assays:
[1] = biological target: SARS-CoV-2 Mpro (Severe acute respiratory syndrome coronavirus 2, UniProt P0DTC1); assay: In-cell protease (ICP) assay, Mpro construct in HEK293T cells; format: cell-based
[2] = biological target: SARS-CoV-2 PLpro (Severe acute respiratory syndrome coronavirus 2, UniProt P0DTC1); assay: cell-based; settings: HEK-293T, read-out: mEmerald-NLS nuclear/total fluorescence (protease activity) normalized to untreated cells
[3] = system: SARS-CoV-2; format: cell-based
[4] = HEK-293T, read-out: mEmerald-NLS nuclear/total fluorescence (protease activity) normalized to untreated cells

Row | SMILES | remaining activity at 1 µM [1, 4] [%] | remaining activity at 10 µM [1, 4] [%] | effect on Mpro activity in cells [1] | remaining activity at 1 µM [2] [%] | remaining activity at 10 µM [2] [%] | Selectivity index SI = CC50/EC50 [3]
1 | COC(=O)N[C@H](C(=O)N1CCC[C@H]1c1ncc(-c2ccc(-c3ccc(-c4cnc([C@@H]5CCCN5C(=O)[C@@H](NC(=O)OC)C(C)C)[nH]4)cc3)cc2)[nH]1)C(C)C [Daclatasvir (BMS-790052)] | 86 | 63.3 |  |  |  | 
2 | COC(=O)N[C@H](C(=O)N1CCC[C@H]1c1nc(-c2ccc(-c3ccc(-c4c[nH]c([C@@H]5CCCN5C(=O)[C@@H](NC(=O)OC)C(C)C)n4)cc3)cc2)c[nH]1)C(C)C [Daclastavir HCl] |  |  | did not detect a reduction in Mpro activity | 50 | 45 | 20.2

Counter-ions that a name gives are not always drawn.
